{"source": "patent US20100260680A1", "about": "“NOVEL BONE MASS INCREASING AGENT” (ORIENTAL YEAST CO., LTD., priority 2007, published 2010)", "system": "MC3T3-E1 cells", "experiment": "RT-PCR verification of gene expression in MC3T3-E1 cells", "type": "cell-based, mouse", "settings": "200 μM peptide D (acetate) or 150 ng/ml BMP-2", "procedure": "Total RNA of each gene collected in Example 22 (2 μg) was subjected to RT-PCR. RT-PCR was performed using the ThermoScript RT-PCR System (Invitrogen) and random primers.\nAfter cDNA synthesis, PCR was performed using primers specific to mouse alkaline phosphatase (mALP), mouse type I collagen al (mColI), and mouse osteocalcin (mOC). For standardization, PCR was performed using primers specific to mouse GAPDH. The used PCR primer sequences are shown below. PCR was performed using Ex Taq™ Hot Start Version (Takara Bio Inc., Shiga, Japan) under the following conditions. Alkaline phosphatase (mALP) was subjected to initial thermal denaturation at 95° C. for 3 minutes, followed by 28 cycles of 95° C. for 10 seconds, 60° C. for 15 seconds, and 68° C. for 1 minute and an elongation reaction at 68° C. for 10 minutes. Type I collagen α1 (mColI) was subjected to initial thermal denaturation at 93° C. for 3 minutes, followed by 20 cycles of 94° C. for 30 seconds, 58° C. for 30 seconds, and 72° C. for 15 seconds and an elongation reaction at 72° C. for 10 minutes. Osteocalcin (mOC) was subjected to initial thermal denaturation at 95° C. for 3 minutes, followed by 28 and 30 cycles of 94° C. for 30 seconds, 58° C. for 30 seconds, and 72° C. for 15 seconds and an elongation reaction at 72° C. for 10 minutes. […]", "data": [{"molecule": "BMP-2: BMP-2 (R&D), known bone morphogenetic factor used as positive control (protein, UniProt P12643 283-396, looked up) Bone morphogenetic protein 2: QAKHKQRKRLKSSCKRHPLYVDFSDVGWNDWIVAPPGYHAFYCHGECPFPLADHLNSTNHAIVQTLVNSVNSKIPKACCVPTELSAISMLYLDENEKVVLKNYQDMVVEGCGCR", "values": [{"measurement": "gene expression levels of ALP, Col1 and OC (RT-PCR)", "result": "significant increases in the gene expression levels"}]}]}
